# Binding of CDR-mutated scFvs to a peptide of the spike HR2 region

The target is the same throughout: PDVDLGDISGINAS, from the HR2 region of SARS-CoV-2 spike.

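The library (AAYL52) carries one to three amino acid substitutions per variant, with no insertions or deletions. Affinity was read by AlphaSeq, a pooled yeast mating assay with surface-displayed partners. After mating in shaken culture at 30 °C for 16 h, diploids were selected and their barcode pairs sequenced. Read counts were normalised to the haploid input and turned into Kd by a linear fit to BCL2-family pairs of known affinity, for each replicate. The assay was run in three technical replicates.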

Parent scFv Ab-95: VH joined to VL by the linker GGGGSGGGGSGGGGS. Changes lie in the light chain CDRs alone.
VH: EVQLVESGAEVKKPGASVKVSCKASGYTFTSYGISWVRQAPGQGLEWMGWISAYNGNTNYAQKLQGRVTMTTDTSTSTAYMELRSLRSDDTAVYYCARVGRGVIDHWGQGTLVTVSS
VL: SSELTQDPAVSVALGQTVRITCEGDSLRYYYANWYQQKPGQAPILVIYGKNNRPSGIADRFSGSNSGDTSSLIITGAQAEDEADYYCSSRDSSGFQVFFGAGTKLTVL

The parent's light chain CDRs are EGDSLRYYYAN, GKNNRPS, SSRDSSGFQVF; each variant's own CDRs replace them letter for letter.
The read-out is the apparent dissociation constant on a log10 scale (nM): the lower, the stronger.
"nd" marks a missing value. The strain was present, yet no cells mated with the target were sequenced in that replicate, which points to weak or no binding.
Three control strains display no target. For library AAYL52, 28% of the pairings with them gave a signal, with a median of 3.91 and one signal in twenty below 2.90, so weak values seen in few replicates may be background. For each scFv, signals with the empty controls are counted beside the result, with their mean in brackets.

| # | CDR-L1 | CDR-L2 | CDR-L3 | log10 Kd, replicates | control signals |
|---|---|---|---|---|---|
| 1 | EGDSLRYYYAN | GKNERPS | SSRDSVGFGVF | 1.91 / 1.84 / 1.47 | 3 of 9 (4.11) |
| 2 | EGDSLRYGGAN | GKNNRPS | SSRDRSGFQVF | 1.28 / 1.30 / 0.90 | 3 of 9 (4.03) |
| 3 | VGDSLRYYYCN | GKNRRPS | SSRDSSGFQVF | nd / nd / 3.07 | 1 of 9 (3.25) |
| 4 | EGDSLRYYYAN | YKNNRWS | SSRDSSGQQVF | nd / 5.44 / nd | 0 of 9 |
| 5 | EGDSLRYFYAN | GKWNRPS | SSRDSSGFQVF | 3.66 / nd / 4.80 | 6 of 9 (4.14) |
| 6 | EYGSLRYYYAN | GKNNRPS | SSRTSSGFQVF | 2.82 / 2.46 / nd | 1 of 9 (3.67) |
| 7 | EGDSVRYYYAN | GKNNRPS | SSRDSYGFQPF | nd / nd / nd | 1 of 9 (4.23) |
| 8 | EGDSLRYYYAN | GKNDRPS | HSRDSKGFQVF | 3.85 / nd / nd | 1 of 9 (3.84) |
| 9 | EGDSLRYHYAN | GKNTRPQ | SSRDSSGFQVF | 1.58 / 1.46 / 0.91 | 2 of 9 (3.88) |
| 10 | EGSSLRYYLAN | GKNNRPS | SSSDSSGFQVF | 4.28 / nd / 3.81 | 2 of 9 (3.83) |
| 11 | ESDSLRYYYAN | GKNNRPS | SSRDVSLFQVF | 4.14 / nd / nd | 1 of 9 (3.51) |
| 12 | EGDSLRYMYAN | GKNNRPS | SSRDSSGFQVF | 1.18 / 1.10 / 0.83 | 2 of 9 (3.93) |
| 13 | EGDYLRYYYAN | GKFNDPS | SSRDSSGFQVF | nd / nd / 3.99 | 3 of 9 (3.69) |
| 14 | EGDSLRYYYAN | GKNNRPS | SSRGSSGDQNF | 3.27 / 3.55 / 3.07 | 4 of 9 (3.78) |
| 15 | EGDSLRVNYAN | GKNNRPS | SARDSSGFQVF | 0.83 / 0.76 / -0.08 | 5 of 9 (3.92) |
| 16 | EGDSLRYYYGN | GKNNRPS | SERDSSGFQGF | nd / nd / nd | 1 of 9 (5.03) |
| 17 | EGDSLRYYYAN | GKNACPS | SSRDSSGFQEF | 4.61 / nd / nd | 0 of 9 |
| 18 | EGDSLRYYYAQ | GKRNRPS | SSFDSSGFQVF | 4.39 / nd / 3.23 | 3 of 9 (3.63) |
| 19 | EGDSLRYYYAN | GKNHRPS | SSRDSSGFQVF | 2.80 / 2.78 / 2.93 | 3 of 9 (4.45) |
| 20 | TGDSLRYYYAN | GKNNRWS | SSRDSHGFQVF | 3.35 / 3.14 / 2.78 | 1 of 9 (4.07) |
| 21 | EGGSLYYYYAN | GKNNRPS | SSRDSSGFQVW | 3.03 / 3.52 / nd | 2 of 9 (3.83) |
| 22 | EGDSLRYYYAN | FKNNRPS | SSRDSSGFQMF | 3.87 / nd / nd | 2 of 9 (4.62) |
| 23 | EGDSLRYYYAN | GRNNRPS | SYRDQSGFQVF | 3.41 / 3.11 / 3.53 | 6 of 9 (3.98) |
| 24 | EGDSLRTYYAN | GKNNRPS | CSRDSSGFVVF | 2.52 / 2.33 / 1.88 | 2 of 9 (4.49) |
| 25 | EGDSLRYYYEN | GKNNRPS | SSDYSSGFQVF | nd / nd / nd | 0 of 9 |
| 26 | EGDSLRDYYAH | GKNNRPS | SSRDSSGFQQF | 5.00 / 3.87 / nd | 3 of 9 (3.51) |
| 27 | EMDSYRYYYAN | GKNNRPS | SSRDSSGVQVF | nd / 4.74 / 3.90 | 3 of 9 (4.38) |
| 28 | EIDSMRYYYAH | GKNNRPS | SSRDSSGFQVF | 2.70 / 3.03 / 2.76 | 1 of 9 (4.20) |
| 29 | NADSLRYYYAN | GKNNRPS | SSRDSFGFQVF | 3.82 / 3.76 / 3.95 | 0 of 9 |
| 30 | LGDSLRGYYAN | GKNNRPC | SSRDSSGFQVF | 2.72 / 2.31 / nd | 0 of 9 |
| 31 | EGDSLRWEYAN | GKNNRPS | SSRDNSGFQVF | 1.99 / 1.70 / 1.33 | 1 of 9 (5.44) |
| 32 | EGKSLRYYYAC | GKNWRPS | SSRDSSGFQVF | 4.64 / nd / 4.42 | 1 of 9 (4.47) |
| 33 | EGDSLRYYYAN | GKCNRPS | SSRDWSGFQVV | 3.45 / 4.89 / 4.11 | 4 of 9 (4.46) |
| 34 | EGDSARYYYAN | MKNNDPS | SSRDSSGFQVF | nd / 5.12 / nd | 1 of 9 (3.03) |
| 35 | EGDSARYYYAN | GDLNRPS | SSRDSSGFQVF | 2.68 / 2.95 / 3.22 | 1 of 9 (3.55) |
| 36 | EGDSLRYYYAT | GKNNRPS | SSRDASEFQVF | 4.77 / 5.68 / 4.10 | 2 of 9 (4.08) |
| 37 | EGDSLRYYMAN | GKNNRPS | SSIDSSGFQVV | 3.02 / 2.29 / 3.54 | 4 of 9 (4.49) |
| 38 | EGDSLRYYYAN | MKNNRPS | SSRDSSHFQVS | 4.28 / 4.66 / nd | 4 of 9 (3.63) |
| 39 | YGDSLRYYYAL | GKNNRPS | SSRDSSGAQVF | 4.34 / 4.44 / nd | 0 of 9 |
| 40 | EGDSLRYYYAN | GKINRPS | SSRDSSGFQVF | nd / nd / nd | 2 of 9 (3.46) |
| 41 | IGDSLQYYEAN | GKNNRPS | SSRDSSGFQVF | 1.65 / 1.32 / 1.25 | 2 of 9 (4.44) |
| 42 | EGDSTRYGYAN | GKNNRPS | SSRDSEGFQVF | 2.50 / 2.55 / 2.19 | 7 of 9 (3.81) |
| 43 | EGHSLRYPYAN | GKNNRPS | SSRDSSGFQVF | 2.35 / 2.53 / 2.86 | 1 of 9 (3.05) |
| 44 | EWDSLRYYDAN | GKNNRPS | SSSDSSGFQVF | 3.05 / 3.80 / 2.93 | 1 of 9 (3.34) |

A selection of 4 entries from above:

| CDR-L1 | CDR-L2 | CDR-L3 | log10 Kd, replicates | control signals |
|---|---|---|---|---|
| EGDSARYYYAN | GDLNRPS | SSRDSSGFQVF | 2.68 / 2.95 / 3.22 | 1 of 9 (3.55) |
| EWDSLRYYDAN | GKNNRPS | SSSDSSGFQVF | 3.05 / 3.80 / 2.93 | 1 of 9 (3.34) |
| EGDSLRWEYAN | GKNNRPS | SSRDNSGFQVF | 1.99 / 1.70 / 1.33 | 1 of 9 (5.44) |
| EGDSLRYYYAN | GKINRPS | SSRDSSGFQVF | nd / nd / nd | 2 of 9 (3.46) |

Parent in this assay: reference entry 2.31, copy in this library 2.25.

Reference: Engelhart et al. 2022, doi:10.1038/s41597-022-01779-4. File: FLAb, binding data.